From ChEMBL document CHEMBL1649335, “Discovery of {1-[4-(2-{hexahydropyrrolo[3,4-c]pyrrol-2(1H)-yl}-1H-benzimidazol-1-yl)piperidin-1-yl]cyclooctyl}methanol, systemically potent novel non-peptide agonist of nociceptin/orphanin FQ receptor as analgesic for the treatment of neuropathic pain: design, synthesis, and structure-activity …” (Bioorg Med Chem, 2010)

Sequences of proteins named here, by UniProt entry; tags and fusion partners are left off.
UniProt P47747, whole entry: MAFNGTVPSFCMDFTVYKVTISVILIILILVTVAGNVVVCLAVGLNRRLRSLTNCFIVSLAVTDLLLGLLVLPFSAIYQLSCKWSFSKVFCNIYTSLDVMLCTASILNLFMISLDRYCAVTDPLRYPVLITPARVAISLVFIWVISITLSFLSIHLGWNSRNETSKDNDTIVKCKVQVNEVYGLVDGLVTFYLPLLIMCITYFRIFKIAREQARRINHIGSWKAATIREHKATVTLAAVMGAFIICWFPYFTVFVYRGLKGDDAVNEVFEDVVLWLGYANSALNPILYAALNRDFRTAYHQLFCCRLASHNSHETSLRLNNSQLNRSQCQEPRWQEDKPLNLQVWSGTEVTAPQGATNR

Target: Histamine H2 receptor (Cavia porcellus, UniProt P47747)

Molecule `CN/C(=N/CCSCc1nc[nH]c1C)NC#N` [CIMETIDINE] has an IC50 of 1020 nM.
